From patent publication US5798442A, “Peptidyl derivatives as inhibitors of pro-apoptotic cysteine proteinases” (Merck Frosst Canada, Inc., priority 1995, dated 1998) come the findings set out here.

The target in experiment [1] is T1, PARP cleavage activity in apoptotic osteosarcoma cell extracts (Homo sapiens, UniProt P42574).
T1 construct: 10 μg protein from the cytosol fraction of apoptotic osteosarcoma cells (from 7 day, post-confluent cultures); endogenous in cells; host or cells: human osteosarcoma cells 143.98.2 (ATCC CRL 11226), 7 day post-confluent (apoptotic), cytosol fraction
T1 sequence (P42574 29-175 limits assumed): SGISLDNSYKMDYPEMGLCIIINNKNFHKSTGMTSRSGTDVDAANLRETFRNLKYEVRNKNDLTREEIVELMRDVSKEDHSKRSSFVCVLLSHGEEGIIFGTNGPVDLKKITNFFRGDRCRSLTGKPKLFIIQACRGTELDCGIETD
T1 sequence (P42574 176-277 limits assumed): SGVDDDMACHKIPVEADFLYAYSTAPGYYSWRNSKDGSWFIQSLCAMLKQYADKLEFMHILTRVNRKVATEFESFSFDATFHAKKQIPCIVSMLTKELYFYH
The experiment can be described thus: [35S]PARP cleavage by cytosolic extracts of apoptotic osteosarcoma cells. The experiment is classed as biochemical.

The next experiment has as its target T2, apopain/CPP32 (Homo sapiens, UniProt P42574).
T2 construct: cleavage between Asp^28 -Ser^29 and Asp^175 -Ser^176; cleavage sites which yield the p17 and p12 subunits from the CPP32 proenzyme; endogenous in cells; host or cells: THP-1 cells (ATCC TIB 202)
T2 sequence (P42574 29-175 limits assumed): T1 sequence (P42574 29-175 limits assumed)
T2 sequence (P42574 176-277 limits assumed): T1 sequence (P42574 176-277 limits assumed)
The experiment can be described thus: continuous fluorometric assay with Ac-DEVD-AMC and purified apopain. It is filed as biochemical.

pIC50, pKi: −log10 of the molar value.

The pIC50 is the negative decadic logarithm of the IC50, by convention in mol/L. A higher pIC50 goes with a small IC50. Usually pKi stands for the Ki on a negative log10 scale, so that one unit is a factor of ten. `CC(=O)N[C@@H](CC(=O)O)C(=O)N[C@@H](CCC(=O)O)C(=O)N[C@H](C(=O)NC(C=O)CC(=O)O)C(C)C` (stereo partly drawn) [Ac-DEVD-CHO, N-(N-Acetyl-L-aspartyl-L-glutamyl-L-valinyl)-3-amino-3-formylpropionic acid] showed a pIC50 in experiment [1] of 9.70. The negative logarithm of the Ki (pKi) at apopain/CPP32 is more than 9.00.
